In patent publication US20080113344A1, “Methods and Compositions for the Response Prediction of Malignant Neoplasia to Treatment” (priority 2003, published 2008):

Columns and labels:
tumor cells = assay: Treating tumor cells with agents blocking EGFR/Her-2/neu signaling, keratin expression; assay type: cell-based; details: keratins being part of the ARCHEONs
EGFR signalling = details: clinical studies; cited from earlier work
[1] = anthracyclin pretreated patients, subsequent Herceptin based regimen; cited from earlier work

COc1cc2ncnc(Nc3ccc(F)c(Cl)c3)c2cc1OCCCN1CCOCC1 [Iressa]
expression of specific keratins in treated tumor cells (tumor cells): shifts the expression of specific keratins | skin diseases under treatment (EGFR signalling): skin diseases (e.g. acne-like rash) of grade I, II or III

Cetuximab: antibody-treatment blocking EGFR signalling
expression of specific keratins in treated tumor cells (tumor cells): shifts the expression of specific keratins | skin diseases under treatment (EGFR signalling): skin diseases (e.g. acne-like rash) of grade I, II or III

Herceptin: Gene specific antibodies raised against HER-2/neu
expression of specific keratins in treated tumor cells (tumor cells): shifts the expression of specific keratins | heart toxicity events [1]: significantly increased heart toxicity events
